Measurements published in patent US20220339180A1, “Methods And Compositions For Treating Viral Diseases Using Combination Of Drugs” (priority 2021, published 2022).

Target: CoV-2 RdRp (Severe acute respiratory syndrome coronavirus 2, UniProt P0DTD1)
Assay type: biochemical, SARS-CoV-2

Structure (SMILES): CNC(=O)c1cc(Oc2ccc(NC(=O)Nc3ccc(Cl)c(C(F)(F)F)c3)cc2)ccn1 [Sorafenib]
- inhibition of kinase like activity of CoV-2 RdRp: significantly abrogated
